The data set is described as follows: Solubility of linker compounds. The note with it: compared with compounds bearing the additional lysine residue. In kind it is physicochemical. From the text:
The propyl end of the linker projects off the N-methylpyrrole of the anchor moiety in each case. This arrangement is sufficient to project the test compound over the minor groove and position it adjacent to the major groove where Exd would bind. The eight varying linkers range from ˜33 Å in the case of the PEG linker to ˜2.5 Å in the case of the lysine linker. Linkers 1-5 and 8 bear an additional lysine residue at the C-terminus of their YPWM hook. This residue is often seen in hooks in various Hox proteins, in our case we treat it as an additional linker residue. The lysine also improves the solubility of these rather hydrophobic compounds. […] Each of the compounds were synthesized by solid phase methods, as described hereinabove. The polyamide was synthesized first, and then conjugated by conventional means to each of the eight linkers, which was then conjugated (by conventional means) to the peptide. Care was taken to ensure that the tyrosine residue was not racemized, and that the tryptophan was not oxidized. The compounds were confirmed by MALDI-TOF mass spectrometery (data not shown).

Two substances from patent US20050123936A1, “Method, composition, and kit to design, evaluate, and/or test compounds that modulate regulatory factor binding to nucleic acids” (priority 2003, published 2005) can be followed below.

Turning to “Linker 7: Example 7 polyamide-FYPWM conjugate with linker 7, no lysine residue (N-methyl)”, the solubility entry is on record as “less soluble”.

As for “Linker 6: Example 7 polyamide-FYPWM conjugate with linker 6, no lysine residue (N-methyl)”, the solubility result is given as “less soluble”.
